{
  "source": "patent US20250108054A1",
  "about": "“METHODS FOR TREATING PERSISTENT OR CHRONIC IMMUNE THROMBOCYTOPENIA IN CHILDREN, ADOLESCENTS AND ADULTS BY ADMINISTERING (R)-2-[3-[4-AMINO-3-(2-FLUORO-4-PHENOXY-PHENYL)PYRAZOLO[3,4-D]PYRIMIDIN-1-YL]PIPERIDINE-1-CARBONYL]-4-METHYL-4-[4-(OXETAN-3-YL)PIPERAZIN-1-YL]PENT-2-ENENITRILE” (Principia Biopharma Inc., priority 2023, published 2025)",
  "origin": "cited, not measured here",
  "test_system": "healthy volunteers",
  "conditions": "healthy volunteers (N=51), even at supratherapeutic doses; cited from earlier work",
  "data": [
    {"smiles": "CC(C)(C=C(C#N)C(=O)N1CCC[C@@H](n2nc(-c3ccc(Oc4ccccc4)cc3F)c3c(N)ncnc32)C1)N1CCN(C2COC2)CC1", "note": "(mixture of isomers) [rilzabrutinib, (R)-2-[3-[4-amino-3-(2-fluoro-4-phenoxy-phenyl)pyrazolo[3,4-d]pyrimidin-1-yl]piperidine-1-carbonyl]-4-methyl-4-[4-(oxetan-3-yl)piperazin-1-yl]pent-2-enenitrile]", "values": [
      {"measurement": "effects on cardiac repolarization (ECG parameters including corrected QT interval)", "result": "does not exert clinically relevant effects"}
    ]}
  ]
}
